Patent US8093272B2 (priority 2004, dated 2012)

Amino acid sequences for entries named in this document (tags omitted). A change or cut given only in a name is not applied to a line headed by its entry.
UniProt P35372, whole entry, looked up: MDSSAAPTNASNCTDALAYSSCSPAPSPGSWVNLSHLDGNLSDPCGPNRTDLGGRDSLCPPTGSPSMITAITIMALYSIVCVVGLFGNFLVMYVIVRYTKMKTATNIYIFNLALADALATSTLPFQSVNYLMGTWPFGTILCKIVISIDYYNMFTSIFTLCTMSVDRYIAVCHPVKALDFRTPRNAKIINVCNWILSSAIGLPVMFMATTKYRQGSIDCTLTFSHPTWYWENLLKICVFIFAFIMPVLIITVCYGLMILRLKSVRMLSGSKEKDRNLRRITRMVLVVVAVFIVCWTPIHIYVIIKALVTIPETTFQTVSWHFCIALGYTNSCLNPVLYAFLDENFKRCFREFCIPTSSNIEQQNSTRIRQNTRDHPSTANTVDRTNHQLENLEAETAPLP
UniProt P41146: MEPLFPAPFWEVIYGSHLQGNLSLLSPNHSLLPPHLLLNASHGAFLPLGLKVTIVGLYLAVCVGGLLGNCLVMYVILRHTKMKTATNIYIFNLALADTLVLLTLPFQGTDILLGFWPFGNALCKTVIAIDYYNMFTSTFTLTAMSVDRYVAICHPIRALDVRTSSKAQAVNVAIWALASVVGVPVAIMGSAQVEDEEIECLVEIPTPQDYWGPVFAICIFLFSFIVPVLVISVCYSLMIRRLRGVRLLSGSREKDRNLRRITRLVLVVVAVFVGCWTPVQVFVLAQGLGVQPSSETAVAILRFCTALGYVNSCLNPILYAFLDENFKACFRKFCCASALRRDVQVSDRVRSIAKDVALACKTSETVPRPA

What was measured:
[1] = molecular target: human μ-opiate receptor (Homo sapiens, UniProt P35372); assay: Measurement of μ-binding ([3H]-naloxone displacement, CHO-K1 membrane preparation, WGA-SPA beads); conditions: test substance 1 μM; displacement of [3H]-naloxone 1 nmol/l
[2] = molecular target: ORL1 receptor (Homo sapiens, UniProt P41146); assay: Measurement of ORL1 binding (3H-nociceptin/orphanin FQ, membranes of recombinant CHO-ORL1 cells); conditions: c=1 μM; 3H-nociceptin/orphanin FQ 0.5 nM

SMILES	μ-binding [1 μM], % inhibition [1]	ORL1-binding, [1 μM], % inhibition [2]
Cc1ccccc1CC1(N(C)C)CCC(NC(=O)c2nn(-c3ccccc3)nc2C)CC1 (stereo not drawn)	73%	–
CCCc1c(C(=O)NC2CCC(c3cccc(F)c3)(N(C)C)CC2)cnn1-c1ccccc1 (stereo not drawn)	100%	80%
Cc1oc(-c2ccc(Cl)cc2)cc1C(=O)NC1CCC(c2cccc(F)c2)(N(C)C)CC1 (stereo not drawn)	83%	74%
Cc1onc(-c2c(F)cccc2Cl)c1C(=O)NC1CCC(c2ccccc2)(N(C)C)CC1 (stereo not drawn)	78%	69%
O=C(NC1CCC(Cc2ccccc2)(N2CCCC2)CC1)c1cccnc1Oc1ccccc1 (stereo not drawn)	60%	–
Cc1nn(-c2ccccc2)nc1C(=O)NC1CCC(c2ccccc2)(N2CCCCC2)CC1 (stereo not drawn)	94%	52%
Cc1sc(-c2ccccc2)nc1CC(=O)NC1CCC(c2cccs2)(N(C)C)CC1 (stereo not drawn)	92%	55%
Cc1onc(-c2ccccc2Cl)c1C(=O)NC1CCC(CCc2ccccc2)(N(C)C)CC1 (stereo not drawn)	77%	–
Cc1sc(-c2ccccc2)nc1CC(=O)NC1CCC(CCc2ccccc2)(N(C)C)CC1 (stereo not drawn)	77%	–
CN(C)C1(c2ccccc2)CCC(NC(=O)c2cccnc2Oc2ccccc2)CC1 (stereo not drawn)	92%	63%
CN(C)C1(CCc2ccccc2)CCC(NC(=O)c2cccnc2Oc2ccccc2)CC1 (stereo not drawn)	65%	–
CN(C)C1(Cc2ccccc2F)CCC(NC(=O)c2cccnc2Sc2ccc(Cl)cc2)CC1 (stereo not drawn)	71%	–
Cc1nn(-c2ccccc2)nc1C(=O)NC1CCC(c2ccccc2)(N(C)C)CC1 (stereo not drawn)	100%	88%
CN(C)C1(c2ccccn2)CCC(NC(=O)c2cccnc2Oc2ccccc2)CC1 (stereo not drawn)	75%	–
Cc1onc(-c2c(F)cccc2Cl)c1C(=O)NC1CCC(c2cccc(F)c2)(N(C)C)CC1 (stereo not drawn)	66%	71%
Cc1onc(-c2c(Cl)cccc2Cl)c1C(=O)NC1CCC(Cc2ccccc2)(N2CCCC2)CC1 (stereo not drawn)	99%	68%
Cc1onc(-c2ccccc2Cl)c1C(=O)NC1CCC(c2cccc(F)c2)(N(C)C)CC1 (stereo not drawn)	67%	92%
Cc1nn(-c2ccccc2)nc1C(=O)NC1CCC(Cc2ccccc2)(N2CCCCC2)CC1 (stereo not drawn)	96%	61%
CN(C)C1(Cc2ccccc2F)CCC(NC(=O)c2ccc(Cc3ccccc3)o2)CC1 (stereo not drawn)	68%	–
CN(C)C1(Cc2ccccc2)CCC(NC(=O)c2cccnc2Oc2ccccc2)CC1 (stereo not drawn)	53%	–
Cc1nn(-c2ccccc2)nc1C(=O)NC1CCC(Cc2cccc(Cl)c2)(N(C)C)CC1 (stereo not drawn)	55%	–
Cc1sc(-c2ccccc2)nc1CC(=O)NC1CCC(Cc2cccc(F)c2)(N(C)C)CC1 (stereo not drawn)	53%	–
CN(C)C1(Cc2cccc(Cl)c2)CCC(NC(=O)c2cccnc2Sc2ccc(Cl)cc2)CC1 (stereo not drawn)	59%	–
Cc1cccc(CC2(N(C)C)CCC(NC(=O)c3ccc(Cc4ccccc4)o3)CC2)c1 (stereo not drawn)	60%	–
CN(C)C1(c2cccs2)CCC(NC(=O)c2cccnc2Oc2ccccc2)CC1 (stereo not drawn)	89%	67%

SMILES	μ-binding [1 μM], % inhibition [1]	ORL1-binding, [1 μM], % inhibition [2]
CN(C)C1(Cc2ccccc2)CCC(NC(=O)c2ccc(Cc3ccccc3)o2)CC1 (stereo not drawn)	77%	–
Cc1onc(-c2c(Cl)cccc2Cl)c1C(=O)NC1CCC(CCc2ccccc2)(N(C)C)CC1 (stereo not drawn)	62%	–
Cc1onc(-c2c(F)cccc2Cl)c1C(=O)NC1CCC(Cc2ccccc2)(N2CCCC2)CC1 (stereo not drawn)	54%	–
CN(C)C1(Cc2cccc(Cl)c2)CCC(NC(=O)c2cnn(-c3ccc(Cl)cc3)c2C(F)(F)F)CC1 (stereo not drawn)	56%	–
Cc1onc(-c2c(Cl)cccc2Cl)c1C(=O)NC1CCC(Cc2ccccc2F)(N(C)C)CC1 (stereo not drawn)	70%	–
CN(C)C1(c2ccccn2)CCC(NC(=O)c2cccnc2Sc2ccc(Cl)cc2)CC1 (stereo not drawn)	92%	50%
Cc1onc(-c2c(Cl)cccc2Cl)c1C(=O)NC1CCC(Cc2ccccc2)(N2CCCCC2)CC1 (stereo not drawn)	77%	–
Cc1nn(-c2ccccc2)nc1C(=O)NC1CCC(Cc2ccc(F)cc2)(N(C)C)CC1 (stereo not drawn)	69%	–
CN(C)C1(Cc2cccc(F)c2)CCC(NC(=O)c2ccc(Cc3ccccc3)o2)CC1 (stereo not drawn)	60%	–
CN(C)C1(Cc2ccccc2F)CCC(NC(=O)c2cccnc2Oc2ccccc2)CC1 (stereo not drawn)	53%	–
Cc1ccc(CC2(N(C)C)CCC(NC(=O)c3nn(-c4ccccc4)nc3C)CC2)cc1 (stereo not drawn)	64%	–
Cc1ccccc1CC1(N(C)C)CCC(NC(=O)Cc2nc(-c3ccccc3)sc2C)CC1 (stereo not drawn)	58%	–
Cc1nn(-c2ccccc2)nc1C(=O)NC1CCC(CCc2ccccc2)(N(C)C)CC1 (stereo not drawn)	55%	–
Cc1ccccc1CC1(N(C)C)CCC(NC(=O)c2ccc(Cc3ccccc3)o2)CC1 (stereo not drawn)	62%	–
CN(C)C1(c2cccc(F)c2)CCC(NC(=O)c2cnn(-c3ccc(Cl)cc3)c2C(F)(F)F)CC1 (stereo not drawn)	77%	–
Cc1onc(-c2c(Cl)cccc2Cl)c1C(=O)NC1CCC(c2cccc(F)c2)(N(C)C)CC1 (stereo not drawn)	65%	64%
Cc1cccc(CC2(N(C)C)CCC(NC(=O)c3nn(-c4ccccc4)nc3C)CC2)c1 (stereo not drawn)	58%	–
O=C(NC1CCC(c2ccccc2)(N2CCCCC2)CC1)c1ccc(Cc2ccccc2)o1 (stereo not drawn)	74%	–
Cc1onc(-c2c(F)cccc2Cl)c1C(=O)NC1CCC(CCc2ccccc2)(N(C)C)CC1 (stereo not drawn)	80%	–
Cc1sc(-c2ccccc2)nc1CC(=O)NC1CCC(c2ccccc2)(N2CCCCC2)CC1 (stereo not drawn)	59%	–
Cc1onc(-c2ccccc2Cl)c1C(=O)NC1CCC(c2ccccc2)(N(C)C)CC1 (stereo not drawn)	85%	88%
CN(C)C1(CCc2ccccc2)CCC(NC(=O)c2ccc(Cc3ccccc3)o2)CC1 (stereo not drawn)	65%	–
CN(C)C1(c2cccc(F)c2)CCC(NC(=O)c2cccnc2Sc2ccc(Cl)cc2)CC1 (stereo not drawn)	92%	55%
Cc1onc(-c2ccccc2Cl)c1C(=O)NC1CCC(Cc2cccc(Cl)c2)(N(C)C)CC1 (stereo not drawn)	65%	–
O=C(NC1CCC(Cc2ccccc2)(N2CCCC2)CC1)c1cccnc1Sc1ccc(Cl)cc1 (stereo not drawn)	78%	–
